The source of these data is patent publication US20260199514A1, “PRODRUG STRATEGY THAT ENHANCES EFFICACY AND LOWERS SYSTEMIC TOXICITY OF MERTANSINE” (priority 2022, published 2026).

The data set can be described thus: Stability and release analysis of DM1-Prodrug in nanoparticles (RP-HPLC). Particulars: on the shelf and in tissue culture conditions prior to cellular uptake. In kind it is physicochemical. The protocol:
FIG. 11. NP[Prodrug] stability in phosphate buffer (PB), acetate buffer (AB) and PB containing enzymes (Enzyme cocktail) at 37° C. Briefly, nanoparticles were prepared and incubated in buffers for 0, 24, and 48 h at 37° C., while the samples were constantly shaking. Nanoparticles were analyzed after incubation period to determine whether prodrug molecules were stable under different pH and reaction condition, using a Zorbax C3 semiprep column and a 2-propanol/acetonitrile/water gradient. Normalized AUC=(AUC of Prodrug Peak at a given hour/AUC of Prodrug Peak at 0 h).
After determining the loading efficiency of DM1-Prodrug, the release of the active DM1 from the liposomes was evaluated using an analytical column in HPLC. […] The sustained retention is advantageous in nanoparticle delivery because it prevents leakage of the drug prior to reaching the target site and ensures its delivery in larger quantities to be released at the tumor site. Upon cellular uptake of nanoparticles, active drug release is facilitated by enzymatic degradation of liposomes and linking moiety.
Stability and Release Analysis of DM1. Samples were prepared at 25 mM of lipid concentration incorporating DM1-Prodrug. Nanoparticles were prepared using dry film hydration and extrusion as mentioned earlier. […]

For DM1-DSPE [Prodrug-4], the “stability of prodrug (in words)” value was “stable on the shelf and in tissue culture conditions”.
